From ChEMBL document CHEMBL6083267, “Rational fragment-based design of compounds targeting the PWWP domain of the HRP family” (Eur J Med Chem, 2024)

Protein sequences, listed by entry. Tags and fused reporters are not part of them. Lines headed by an entry give the natural chain unless they say otherwise; changes in a name come on top.
UniProt O75475: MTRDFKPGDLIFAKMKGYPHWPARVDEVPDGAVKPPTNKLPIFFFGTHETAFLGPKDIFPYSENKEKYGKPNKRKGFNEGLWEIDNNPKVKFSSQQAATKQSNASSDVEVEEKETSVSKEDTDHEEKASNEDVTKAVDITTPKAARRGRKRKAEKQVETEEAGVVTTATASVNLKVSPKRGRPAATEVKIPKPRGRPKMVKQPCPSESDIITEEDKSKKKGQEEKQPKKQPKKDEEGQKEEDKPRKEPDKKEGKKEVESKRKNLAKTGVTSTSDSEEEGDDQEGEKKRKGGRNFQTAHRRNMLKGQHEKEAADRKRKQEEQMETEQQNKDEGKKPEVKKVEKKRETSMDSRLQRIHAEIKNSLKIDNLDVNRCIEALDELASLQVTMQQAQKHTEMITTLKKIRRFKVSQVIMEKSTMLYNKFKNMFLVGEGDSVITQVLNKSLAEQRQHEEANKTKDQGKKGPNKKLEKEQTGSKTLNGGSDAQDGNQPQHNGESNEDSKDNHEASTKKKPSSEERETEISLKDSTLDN

How the values were obtained:
[1] = molecular target: T1, PC4 and SFRS1-interacting protein (Homo sapiens, UniProt O75475); settings: dose 250.0 µM
[2] = molecular target: T1, PC4 and SFRS1-interacting protein; settings: dose 500.0 µM

| Compound | ΔTm [1] | ΔTm [2] |
| --- | --- | --- |
| Nc1ccc(CNCc2cncc(Br)c2)cc1 | 1.55 °C | – |
| NCc1cncc(Br)c1 | – | 0.58 °C |
| CCS(=O)(=O)c1ccc(C2CCCCN2)cc1 (stereo unspecified) | – | 2.02 °C |
| NC(=O)CCN1CCCC1c1ccccc1 (stereo unspecified) | – | 1.32 °C |
| CCS(=O)(=O)c1ccccc1NC(=O)COc1cccc(CC(=O)O)c1 | 0.17 °C | – |
| CCS(=O)(=O)c1ccccc1NC(=O)CCl | – | 0.52 °C |
